Nrf2 inh: inhibitors of Nrf2 signaling | A549 ARE-Fluc reporter, luciferase luminescence, 18-24 h | Potency, µM (doses to about 46 µM), without a hit: top-dose activity change, negative = inhibition, actives largely listed as inhibitors | hit rate 2.1% among 360,000; further: potency means the concentration at half of the fitted maximal effect; on the % scale 0 is the no-effect control and ±100 the full control effect; nearly all actives have a fitted effect of over 60% in size
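Cells were seeded and rested 2 h, then exposed to compounds for 18-24 h. CellTiter-Fluor was read first as a viability measure. BugLite was added 15 min before the final luminescent read of ARE-luciferase activity in A549 cells.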
Glioma ERSR ind: ER stress response induction in glioma; U87-MG GRP78 promoter luciferase reporter, 16 h; hit rate 0.02% among 420,000; AID 602332; Potency, µM, for the others: at the highest dose activation, hits mostly activators; further: potency means the concentration at half of the fitted maximal effect; series mostly up to about 76 µM; % of control where 0% means no effect; nearly all actives have a fitted effect of over 35% in size
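Stably transfected U87-MG glioma cells carrying a GRP78-based luciferase sensor; 16 h compound incubation. Luminescence end-point read 10 min after Bright-Glo addition at room temperature.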
Nrf2 activator: activates Nrf2 signaling. AREc32 ARE-luciferase reporter (MCF7-derived line), luminescence, 24 h. Potency, µM (top dose mostly 46.1 µM), without a hit: top-dose activation, most hits filed as activators. hit rate 0.31% among 410,000; further: potency means the concentration at half of the fitted maximal effect; % of control where 0% means no effect; nearly all actives have a fitted effect of over 65% in size
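Each well held 1000 AREc32 cells, which were incubated with compound for 24 hr at 37 deg C after overnight attachment, and ARE reporter activity was quantified by firefly luciferase luminescence.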
Mito fusion yeast: blocks mitochondrial division or promotes mitochondrial fusion. Potency, µM (series often up to 46.1 µM), for inactives: at the highest dose growth rescue (activation), hits mostly activators. S. cerevisiae fusion-defective mutant growth rescue, CellTiterGlo 48 h. hit rate 0.23% among 320,000. AID 485298; further: potency means the concentration at half of the fitted maximal effect; % of control where 0% means no effect; nearly all actives have a fitted effect of over 45% in size
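S. cerevisiae fusion-defective temperature-sensitive mutants (e.g. fzo1-1, mgm1-5) grown 48 h at 37C in YPEG (ethanol/glycerol non-fermentable) medium with 23 nl compound per well; growth rescue read as CellTiterGlo luminescence.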
miR-21 FLuc: miR-21 reporter, rising signal. HeLa miR-21 FLuc reporter, luciferase, 48 h. Potency, µM (highest dose often 38.3 µM), for the others: at the highest dose reporter change, positive = more light. 340,000 tested, under 10 active. AID 2288; active = well fitted rising curve with a large enough effect; inconclusive = small, poorly fitted or top-dose-only effect; inactive = no such curve, though single readings can be large or run the other way;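 further: % of control where 0% means no effect; miR-21 action dims this reporter so a rising signal means less miR-21 action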
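HeLa cells endogenously expressing miR-21, stably carrying CMV-driven firefly luciferase with a downstream miR-21 binding site, 2000 cells/well. Titrations up to approximately 40 uM, 48 hours; luciferase luminescence read.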
A549 tox: A549 cytotoxicity, counter-screen for Nrf2 inhibitors | A549 ARE-Fluc cells, CellTiter-Fluor viability, 18-24 h | hit rate 0.16% among 390,000 | AID 504648 | Potency, µM (highest dose often 46 µM), inactives show top-dose activity change, negative = cytotoxicity, most hits filed as inhibitors; further: potency means the concentration at half of the fitted maximal effect; on the % scale 0 is the no-effect control and ±100 the full control effect
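Cytotoxicity counterscreen: CellTiter-Fluor fluorescence was measured in A549 ARE_Fluc cells after 18-24 h of compound exposure in a concentration series. The subsequent BugLite luminescent read reports ARE-luciferase activity.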
Starred values were filed as active, the others as inactive; ? = inconclusive; / = no result given; [ ] = another dose, or the depositor's remark. In the library only some 2.3% were active in any assay of this set; here they are far more common. The call rests on the fitted dose curve; in most records, active means well fitted curve in the direction sought with a large enough effect; inconclusive means small, poorly fitted or top-dose-only effect, or another doubt; inactive means no such curve, though single readings can be large; an effect the other way counts as inactive or inconclusive.

The opening five compounds, ahead of the listing:
cpd	Compound	Nrf2 inh	Glioma ERSR ind	Nrf2 activator
1	O=C(CNC(=O)c1ccc([N+](=O)[O-])cc1)OC(C(=O)Nc1cc(C(F)(F)F)ccc1Cl)c1ccccc1 (stereo not drawn)	-13%	/	/
2	O=C(CCCN1C(=O)S/C(=C\C=C\c2ccccc2)C1=O)Nc1ccc(O)cc1	?	7%	11%
3	CCn1ncc([N+](=O)[O-])c1C(=O)Nc1cc(C)on1	-7%	-3%	5%
4	COc1ccc(CC(=O)Nc2cccc(-c3nnc(-c4ccco4)o3)c2)cc1	6.5µM*	-1%	-1%
5	COc1ccc(C(=O)Nc2cccc(-c3nnc(-c4ccco4)o3)c2)cc1	?	-3%	-1%

cpd	Mito fusion yeast	miR-21 FLuc	A549 tox
1	/	/	3%
2	3%	-4%	?
3	1%	5%	3%
4	-3%	17%	?
5	18%	18%	?

The listing, from the first entry:
cpd	Compound	Nrf2 inh	Glioma ERSR ind	Nrf2 activator
1	O=C(CNC(=O)c1ccc([N+](=O)[O-])cc1)OC(C(=O)Nc1cc(C(F)(F)F)ccc1Cl)c1ccccc1 (stereo not drawn)	-13%	/	/
2	O=C(CCCN1C(=O)S/C(=C\C=C\c2ccccc2)C1=O)Nc1ccc(O)cc1	?	7%	11%
3	CCn1ncc([N+](=O)[O-])c1C(=O)Nc1cc(C)on1	-7%	-3%	5%
4	COc1ccc(CC(=O)Nc2cccc(-c3nnc(-c4ccco4)o3)c2)cc1	6.5µM*	-1%	-1%
5	COc1ccc(C(=O)Nc2cccc(-c3nnc(-c4ccco4)o3)c2)cc1	?	-3%	-1%
6	Cc1ccc(SCCNC(=O)/C=C/c2ccc([N+](=O)[O-])cc2)cc1	-10%	-2%	-1%
7	CCCOc1ccc(/C=C/C(=O)Nc2ccc([N+](=O)[O-])cc2)cc1	23µM*	-5%	3%
8	O=C(/C=C/c1ccc([N+](=O)[O-])cc1)NCCSc1ccccc1	?	-1%	0%
9	CCOC(=O)C1=C(c2ccccc2)N=c2s/c(=C\c3cccc(O)c3)c(=O)n2C1c1cccs1 (stereo not drawn)	26µM*	5%	-1%
10	O=C(Cn1cnc2scc(-c3ccc(F)cc3)c2c1=O)N1CCOCC1	-5%	-9%	-1%
11	CCOC(=O)c1c(C)oc2nc(C)nc(NCCc3ccc(Cl)cc3)c12	-25%	-2%	0%
12	CCOC(=O)c1c(C)oc2nc(C)nc(NCCc3ccc(OCC)cc3)c12	23µM*	-3%	1%

cpd	Mito fusion yeast	miR-21 FLuc	A549 tox
1	/	/	3%
2	3%	-4%	?
3	1%	5%	3%
4	-3%	17%	?
5	18%	18%	?
6	16µM*	-7%	12%
7	-5%	11%	-20%
8	4%	1%	-4%
9	-9%	?	?
10	1%	-2%	-3%
11	/	-7%	14%
12	/	1%	-3%

(listing goes on)
cpd	Compound	Nrf2 inh	Glioma ERSR ind	Nrf2 activator
13	CC(Oc1ccc(Cl)cc1Cl)c1nc(-c2ccc(NC(=O)c3ccncc3)cc2)no1 (stereo not drawn)	10µM*	-7%	0%
14	CC(Oc1ccc(Cl)cc1Cl)c1nc(-c2ccc(NC(=O)c3cccnc3)cc2)no1 (stereo not drawn)	/	4%	-1%
15	O=S(=O)(Nc1cccc2ccccc12)c1cccs1	6%	3%	0%
16	O=S(=O)(Nc1cccc2cccnc12)c1cccs1	18µM*	-11%	/
17	O=S(=O)(Nc1cccc2cccnc12)c1ccc(Br)cc1	8.2µM*	/	/
18	COc1ccc(S(=O)(=O)Nc2cc(OC)cc3cccnc23)cc1	?	/	/
19	O=S(=O)(Nc1cccc2cccnc12)c1cccc2ccccc12	?	4%	/
20	O=S(=O)(Nc1cccc2cccnc12)c1ccc2ccccc2c1	5.2µM*	?	/
21	Nc1ccc(S(=O)(=O)Nc2cccc3cccnc23)cc1	11%	/	/
22	COc1ccc(S(=O)(=O)Nc2cccc3cccnc23)c([N+](=O)[O-])c1	7.3µM*	?	/
23	Cc1ccc(C)c(S(=O)(=O)N2C(=S)NC(=O)C2C(C)C)c1 (stereo not drawn)	/	-3%	-1%
24	O=C(Nc1cc(-c2nc3ccccc3o2)ccc1Cl)c1ccc(N2CCCCC2)c([N+](=O)[O-])c1	17%	2%	5%

cpd	Mito fusion yeast	miR-21 FLuc	A549 tox
13	?	16%	-1%
14	19%	29%	-13%
15	1%	-21%	-1%
16	/	/	?
17	/	/	?
18	/	/	-5%
19	/	/	-23%
20	/	/	-10%
21	/	/	3%
22	/	/	?
23	17%	-7%	3%
24	/	-41%	0%

Other compounds follow.
cpd	Compound	Nrf2 inh	Glioma ERSR ind	Nrf2 activator
25	COc1ccc(/C=N/NC(=O)Cc2csc(Nc3cccc(C(F)(F)F)c3)n2)c(OC)c1	?	-2%	0%
26	CCOCCCNC(=O)/C(C#N)=C/c1ccc(-c2ccc(S(=O)(=O)N3CCOCC3)cc2)o1	0%	-4%	0%
27	CCOCCCNC(=O)/C(C#N)=C/c1ccc([N+](=O)[O-])o1	26µM*	-17%	?
28	CCNC(=O)CSc1nc2cc(S(=O)(=O)Nc3ccc(OC)cc3)ccc2o1	9%	-1%	2%
29	COc1ccc(NS(=O)(=O)c2ccc3oc(SC(C)C(N)=O)nc3c2)cc1 (stereo not drawn)	23µM*	7%	3%
30	Cc1oc(-c2cccc(Br)c2)nc1Cn1c(SCc2cccc(F)c2)nc2cccnc21	13µM*	-4%	0%
31	Cc1nc(NC(=O)c2cccs2)ccc1Br	?	5%	16µM*
32	Cc1cc(C)cc(C(=O)Nc2ccc(NC(=O)c3cccs3)cc2)c1	18µM*	3%	4%
33	O=C(Nc1cccc2cccnc12)c1cccs1	?	4%	/
34	O=C(Nc1cccc(-c2csc(-c3ccccc3)n2)c1)c1cccs1	16µM*	4%	4%
35	Cc1cc(C)nc(NC(=O)c2cccs2)n1	13%	-3%	7%
36	O=C(Nc1cccc2nsnc12)c1cccs1	?	?	7.9µM*

cpd	Mito fusion yeast	miR-21 FLuc	A549 tox
25	1%	-4%	-6%
26	21%	27%	-3%
27	-2%[9.22 µM]	10%	?
28	-6%	0%	1%
29	-6%	3%	-3%
30	/	2%	-25%
31	2%	-24%	3%
32	2%	12%	?
33	/	/	2%
34	?	12%	0%
35	4%	-13%	-1%
36	-2%	-30%	-11%

(more compounds)
cpd	Compound	Nrf2 inh	Glioma ERSR ind	Nrf2 activator
37	CC1(C(=O)NCCC(F)(F)F)Cc2c(-c3ccccc3)ccnc2O1 (stereo not drawn)	/	-2%	-1%[9.22 µM]
38	COc1ccc(NC(=O)c2cc(-c3ccc4c(c3)OCO4)on2)c(OC)c1	20%	0%	-1%
39	COc1ccc(-c2cc(C)no2)cc1S(=O)(=O)N1CCCC(C)C1 (stereo not drawn)	?	-3%	1%
40	O=C(Nc1ccncc1)c1cccs1	8%	0%	1%
41	O=C(Nc1ccc2nsnc2c1)c1cccs1	5%	1%	8.9µM*
42	O=C(NCc1ccco1)Nc1ccc2nsnc2c1	4%	-17%	22µM*
43	O=C(Nc1cccc(NC(=O)c2cccs2)c1)c1cccnc1	1%	0%	13µM*
44	CC1CCN(C(=O)CN2C(=O)COc3ccc(Cl)cc32)CC1	-18%	-1%	-1%
45	O=C1OC(COc2ccc(Br)cc2)CN1c1ccccc1 (stereo not drawn)	20%	-4%	0%
46	COc1ccc(-c2nc3ccccc3s2)cc1	?	-11%	4%
47	c1coc(-c2nc3ccccc3s2)c1	?	2%	11µM*

cpd	Mito fusion yeast	miR-21 FLuc	A549 tox
37	/	/	/
38	/	-5%	1%
39	/	-3%	?
40	7%	7%	-5%
41	2%	-15%	-6%
42	-2%	-1%	-13%
43	-6%	-1%	-1%
44	0%	8%	-19%
45	3%	1%	3%
46	4%	2%	0%
47	/	/	0%

Compound activity: PubChem BioAssay, National Center for Advancing Translational Sciences (NCATS)
